Assay results published in BindingDB's records for PubMed 1656026 (University of Nebraska, 1991).

Target: Alpha-2C adrenergic receptor

Compound | Ki [nM]
Cc1ccc(N(CC2=NCCN2)c2cccc(O)c2)cc1 [SMR000059054] | 9.7
CN(C)CCCN1c2ccccc2Sc2ccc(Cl)cc21 [[3-(2-Chloro-phenothiazin-10-yl)-propyl]-dimethyl-amine(Chlorpromazine)] | 37
Cc1cc(C(C)(C)C)c(O)c(C)c1CC1=NCCN1 [SMR000059324] | 31
